For this assay, the target named is human epidermal growth factor receptor 2 (Homo sapiens, UniProt P04626). Nature of the assay: SPR.

B1: hu4D5 Fab (Fab, V domains shown)
VH: [about 120 residues not written out]
VL: DIQMTQSPSSLSASVGDRVTITCRASQDVNTAVAWYQQKPGKAPKLLIYSASFLYSGVPSRFSGSRSGTDFTLTISSLQPEDFATYYCQQHYTTPPTFGQGTKVEIK
Turning to B1, binding was characterised by a dissociation constant (Kd) of 0.13 nM; the koff (as a rule, the rate constant with which the complex falls apart) stood at 0.00011 s⁻¹; the kon (as a rule, the second-order rate constant of association) was found to be 720000 M⁻¹ s⁻¹.
